This note sets out measurements from patent US8273710B2, “Protein hydrolysate enriched in peptides inhibiting DPP-IV and their use” (Campina Nederland Holding B.V., priority 2004, dated 2012).

The chains behind the UniProt entries cited, without tags or fusion partners. Where a name states a change or a piece, a line headed by the entry shows the natural chain unless it says otherwise.
UniProt P22411: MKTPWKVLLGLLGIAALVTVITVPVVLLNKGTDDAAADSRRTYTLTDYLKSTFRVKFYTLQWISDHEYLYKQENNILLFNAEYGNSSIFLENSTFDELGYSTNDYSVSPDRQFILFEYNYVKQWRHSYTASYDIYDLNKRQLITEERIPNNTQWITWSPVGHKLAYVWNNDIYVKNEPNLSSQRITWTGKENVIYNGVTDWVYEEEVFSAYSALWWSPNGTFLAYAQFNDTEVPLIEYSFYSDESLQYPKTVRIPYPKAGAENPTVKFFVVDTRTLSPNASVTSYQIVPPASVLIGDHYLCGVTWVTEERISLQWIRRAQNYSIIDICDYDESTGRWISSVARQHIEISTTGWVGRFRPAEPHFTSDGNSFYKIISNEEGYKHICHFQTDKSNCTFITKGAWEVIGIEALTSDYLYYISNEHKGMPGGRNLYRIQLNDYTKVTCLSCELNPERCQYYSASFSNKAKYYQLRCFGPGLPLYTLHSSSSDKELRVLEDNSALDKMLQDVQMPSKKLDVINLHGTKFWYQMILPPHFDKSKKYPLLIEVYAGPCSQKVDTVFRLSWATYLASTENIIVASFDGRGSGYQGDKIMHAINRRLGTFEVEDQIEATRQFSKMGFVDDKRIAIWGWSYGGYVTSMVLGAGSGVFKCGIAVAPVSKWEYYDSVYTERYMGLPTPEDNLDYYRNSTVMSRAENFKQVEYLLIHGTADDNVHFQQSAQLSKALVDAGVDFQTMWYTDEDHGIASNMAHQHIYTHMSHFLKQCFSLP

The target of the experiment is DPP-IV (Sus scrofa, UniProt P22411). Kind of experiment: biochemical. The source says:
About 40 protein hydrolysates were subjected to on-line liquid chromatography (LC)-biochemical detection (BCD)-mass spectrometry (MS), a method that allowed for separation of crude extract by HPLC, after which the presence of bioactive compounds was detected by means of an on-line biochemical assay. This method for on-line fractionation and characterisation has extensively been described by Van Elswijk et al. (J Chromatography A (2003) 1020:45-58).
A variety of protein hydrolysates prepared according to example 2 were further investigated for DPP-IV inhibiting activity. Hydrolysed protein samples were analysed for DPP-IV inhibitory activity in a high-resolution screening (HRS) instrument, as discussed in Van Elswijk et al. (supra).
DPP-IV inhibition was monitored via the substrate conversion based bioassay format as disclosed in example 1. In addition to the DPP-IV inhibitory activity data, chemical information was obtained in real-time by allowing part of the HPLC effluent to be directed towards a mass spectrometer. […] The assay conditions applied ensured maximum enzyme activity by applying substrate saturation.

`CC[C@H](C)[C@H](N)C(=O)N1CCC[C@H]1C(=O)N[C@H](C(=O)O)[C@@H](C)CC` [IPI]: the IC50 (usually the concentration needed to halve the response being measured) was about 5 µM. In the case of `CC(C)C[C@H](NC(=O)[C@@H]1CCCN1C(=O)[C@@H](N)CC(C)C)C(=O)O` [LPL], the IC50 was about 5 µM. The “RELATIVE POTENCY [%]” value (signal relative to the highest signal obtained in this test (LPL and IPI)) was determined as 100%.
